The list is not random: actives were taken first. Their share in the collection is about 4.2%.
HDAC3 inh: HDAC3 deacetylase inhibitors, primary screen, biochemical, fluorescence, cell-free homogeneous | Histone deacetylase 3 (Homo sapiens), O15379 | recombinant HDAC3, fluorogenic peptide/trypsin coupled | inhibition, % at 8.3 µM | hit rate 0.15% among 320,000; in the data active means inhibition above about 26%, passing the limit was not always enough; inconclusive means no clear call, values can overlap the other calls
Yeast UUG start: yeast start codon fidelity modulation | S. cerevisiae UUG-firefly luciferase reporter, luminescence/redox ratio | activity score, % at 18.7 µM | 350,000 tested, 0.13% active;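 active = replicate mean at a twofold rise or more, about +100% in these data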;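 also: firefly luciferase made from a UUG start codon reports start codon fidelity; reporter light over untreated wells divided by growth signal over untreated wells; some hits fall short of that in this replicate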
MC4R ag barr: MC4R agonists recruiting beta-arrestin, primary screen, cell-based, luminescence, agonist arm of biased-ligand search. Melanocortin receptor 4 (Homo sapiens), P32245. U2OS MC4R beta-arrestin complementation; percent of melanotan II response, DMSO zero. activation, % at 8.9 µM. hit rate 0.98% among 360,000;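 active means activation above a per-plate cutoff, the mean activation of sample wells on that plate plus 3 SD, cut at about 8% in these data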
ALR inh: human ALR oxidase inhibition via reduced H2O2. P55789. purified ALR, DTT oxidation, H2O2 HRP-luminol luminescence. inhibition, % (no concentration beside the values). 290,000 tested, 3.8% active. AID 485317;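 active = mean and each replicate at 75% or more; inconclusive = only one of the two met; inactive = neither met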;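 also: stock transfer was 7.5 nL into about 7.5 µL; 0% = neutral wells and 100% = wells with inactivated enzyme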
NALP1 inh: NALP1 inflammasome inhibitors in reconstituted yeast, colorimetric, S. cerevisiae, triplicate retest | AID 2071, 2009 | S. cerevisiae NALP1/ASC/caspase-1 growth, X-gal OD620, 72 h | inhibition, % at 10 µM | hit rate 0.61% among 280,000; in the data active means inhibition mostly above about 24%, no sharp cut-off; inactive means mostly below about 32%
MC4R antagonist: MC4R antagonists of cAMP signaling, primary screen, cell-based, TR-FRET, antagonist arm of biased-ligand search. Melanocortin receptor 4 (Homo sapiens), P32245. MC4R-expressing cells, MTII-stimulated cAMP, LANCE TR-FRET. inhibition, % at 6.5 µM. hit rate 0.48% among 360,000. AID 540295, 2011;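 active means inhibition above its plate's cutoff, the mean of tested wells on that plate plus 3 SD, cut at about 29% in these data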;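 further: 0% = Melanotan II alone and 100% = Melanotan II plus saturating MCL0020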
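Material – human MC4R-expressing U2OS cells · Repeats – no replicates · Detection – TR-FRET with Eu-cAMP and labeled anti-cAMP, 671 nm · Times – compound 30 min, challenge 1 h, detection 1 h · Compound – single nominal compound dose of 6.5 µM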
Active calls of the source: *; ? = inconclusive; nt = no result given.

By UniProt entry, the sequences of proteins in these tests, tags left out.
Melanocortin receptor 4 (Homo sapiens), P32245, UniProt P32245, whole entry, looked up: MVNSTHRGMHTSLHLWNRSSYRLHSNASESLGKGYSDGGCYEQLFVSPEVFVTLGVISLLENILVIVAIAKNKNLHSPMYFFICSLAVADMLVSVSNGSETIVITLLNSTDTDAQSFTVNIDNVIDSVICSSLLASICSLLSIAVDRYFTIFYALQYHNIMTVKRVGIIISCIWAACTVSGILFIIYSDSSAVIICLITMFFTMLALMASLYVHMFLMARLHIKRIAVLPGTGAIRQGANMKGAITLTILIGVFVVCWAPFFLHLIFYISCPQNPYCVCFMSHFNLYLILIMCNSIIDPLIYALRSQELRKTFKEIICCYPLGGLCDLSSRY

[1] O=C(O)c1cccc2c1C(=O)c1ccc(-c3ccc(F)cc3OCc3ccccc3)cc1S2(=O)=O
[2] C[C@H]1CN([C@@H](C)CO)C(=O)c2cccc(NS(=O)(=O)c3ccc(Cl)cc3)c2O[C@H]1CN(C)Cc1ccc(C(F)(F)F)cc1
[3] CN(C)CCNc1ncnc2c1sc1nc(-c3ccccc3)c3c(c12)CCCC3
[4] O=c1ccc(N=Nc2ccccc2)ccc1O
[5] O=S(=O)(O)c1ccc(N=Nc2ccccc2)cc1
[6] O=C1O[C@@H](c2ccccc2)[C@@H](c2ccccc2)N2[C@@H](c3ccc(OCCO)cc3)[C@]3(C(=O)Nc4ccc(C#CC5=CCCCC5)cc43)[C@@H](C(=O)NC[C@H](O)c3ccccc3)[C@H]12

Compound | 1 | 2 | 3 | 4 | 5 | 6
HDAC3 inh | 7 | nt | -2 | 2 | 1 | nt
Yeast UUG start | -14 | -4 | 24 | -19 | -4 | 4
MC4R ag barr | 2 | nt | 4 | -4 | -1 | nt
ALR inh | 98* | nt | -13 | 98* | -5 | nt
NALP1 inh | nt | nt | 45* | 14 | 5 | nt
MC4R antagonist | 1 | nt | 0 | -1 | 3 | nt

[7] CCOc1c(S(=O)(=O)N2CCCC2)ccc(Cl)c1Cl
[8] CCC(=O)N[C@@H]1CC[C@@H](CC(=O)NCC2CCCCC2)O[C@H]1CO
[9] O=C(NNc1c(F)c(F)cc(F)c1F)c1ccc(Cl)nc1
[10] C[C@H]1CN([C@@H](C)CO)S(=O)(=O)c2ccc(-c3ccc(F)cc3)cc2O[C@@H]1CN(C)C(=O)C1CCCCC1
[11] C=CC[n+]1c(C)csc1Nc1cccc(Br)c1
[12] Cc1ccc(-c2csc(Nc3ccccc3)[n+]2CCc2ccccc2)cc1

Compound | 7 | 8 | 9 | 10 | 11 | 12
HDAC3 inh | -8 | nt | -1 | nt | 1 | -1
Yeast UUG start | -1 | -19 | -12 | 11 | nt | nt
MC4R ag barr | -2 | nt | -2 | nt | -1 | -1
ALR inh | 1 | nt | 96* | nt | 97* | -3
NALP1 inh | 41* | nt | 10 | nt | 6 | 6
MC4R antagonist | 6 | nt | 3 | nt | 8 | 11

[13] C=CC[n+]1c(-c2ccc(Cl)cc2Cl)csc1Nc1ccc(NC(C)=O)cc1
[14] C=CC[n+]1c(C)csc1Nc1ccc(C)cc1
[15] COc1ccc(NC(=O)N(C)C[C@@H]2Oc3c(NC(=O)c4ccncc4)cccc3C(=O)N([C@@H](C)CO)C[C@H]2C)cc1
[16] O=C(c1ccccc1F)N1C[C@H]2[C@@H](c3ccccc31)[C@@H](CO)N2C(=O)c1ccccc1
[17] C[C@H]1CN([C@@H](C)CO)C(=O)c2cc(NC(=O)Cc3cn(C)c4ccccc34)ccc2O[C@H]1CN(C)C
[18] C=CCn1c(=NC(=O)c2ccc(S(=O)(=O)N3CCc4ccccc4C3)cc2)sc2cc(S(N)(=O)=O)ccc21

Compound | 13 | 14 | 15 | 16 | 17 | 18
HDAC3 inh | 7 | 2 | nt | nt | nt | 0
Yeast UUG start | nt | nt | -8 | -6 | 14 | -16
MC4R ag barr | -1 | -2 | nt | nt | nt | -3
ALR inh | 12 | 99* | nt | nt | nt | -2
NALP1 inh | -3 | -2 | nt | nt | nt | 30
MC4R antagonist | -21 | 8 | nt | nt | nt | -3

[19] C=CCn1c(=NC(=O)CN2C(=O)CCC2=O)sc2cc(S(N)(=O)=O)ccc21
[20] CC(=O)N(C)C[C@@H]1Oc2ncc(C#Cc3ccccn3)cc2C(=O)N([C@@H](C)CO)C[C@H]1C
[21] CN(C)c1ccc(C(=O)NC2(N3CCC3=O)CCCC2)cc1
[22] CSC(=NCCCN1CCOCC1)NS(=O)(=O)c1cccs1
[23] C[C@H]1CN([C@@H](C)CO)C(=O)c2cc(NC(=O)Cn3cnnn3)ccc2O[C@H]1CN(C)Cc1ccc(-c2ccccc2)cc1
[24] CC(O)(CS(=O)(=O)Cc1ccc(Cl)cc1)C(=O)Nc1cccc(C(F)(F)F)c1 (stereo not given)

Compound | 19 | 20 | 21 | 22 | 23 | 24
HDAC3 inh | 6 | nt | -6 | -2 | nt | 8
Yeast UUG start | -11 | 8 | nt | 1 | 4 | -5
MC4R ag barr | 1 | nt | -1 | 1 | nt | 11*
ALR inh | 98* | nt | 100* | 0 | nt | -4
NALP1 inh | 29 | nt | 13 | 32* | nt | -1
MC4R antagonist | -9 | nt | 0 | 9 | nt | 11

[25] NC(=S)Cc1ccc(Cl)cc1Cl
[26] N=C(N)SCc1ccc(Cl)cc1Cl
[27] Cc1ccc(-c2cc(-c3n[nH]c(=S)n3C)c3ccccc3n2)cc1
[28] Cn1c(-c2ccccc2Br)n[nH]c1=S
[29] Cn1c(-c2ccco2)n[nH]c1=S
[30] CCn1c(-c2cc(-c3ccc(C)c(C)c3)nc3ccccc23)n[nH]c1=S

Compound | 25 | 26 | 27 | 28 | 29 | 30
HDAC3 inh | 2 | 0 | 10 | -6 | 10 | 7
Yeast UUG start | -29 | nt | nt | nt | nt | nt
MC4R ag barr | -1 | 3 | 0 | -3 | 0 | nt
ALR inh | 2 | 99* | 97* | 96* | 17 | 40
NALP1 inh | nt | 18 | -6 | nt | -9 | 11
MC4R antagonist | -3 | -4 | -2 | 3 | -1 | nt

3 compounds from above, sorted by the value under MC4R ag barr, largest number first.
[26] N=C(N)SCc1ccc(Cl)cc1Cl
[29] Cn1c(-c2ccco2)n[nH]c1=S
[25] NC(=S)Cc1ccc(Cl)cc1Cl

Compound | 26 | 29 | 25
HDAC3 inh | 0 | 10 | 2
Yeast UUG start | nt | nt | -29
MC4R ag barr | 3 | 0 | -1
ALR inh | 99* | 17 | 2
NALP1 inh | 18 | -9 | nt
MC4R antagonist | -4 | -1 | -3

Entries listed so far with a thiophene ring, fused or not:
[3] CN(C)CCNc1ncnc2c1sc1nc(-c3ccccc3)c3c(c12)CCCC3
[22] CSC(=NCCCN1CCOCC1)NS(=O)(=O)c1cccs1

Compound | 3 | 22
HDAC3 inh | -2 | -2
Yeast UUG start | 24 | 1
MC4R ag barr | 4 | 1
ALR inh | -13 | 0
NALP1 inh | 45* | 32*
MC4R antagonist | 0 | 9

Remaining list, next part
[31] Cc1ccc(/C=N/n2c(-c3cccnc3)n[nH]c2=S)o1
[32] CN(C)c1ccc(/C=N/n2c(-c3cccnc3)n[nH]c2=S)cc1
[33] CN(C)c1ccc(/C=N/n2c(-c3ccccc3Br)n[nH]c2=S)cc1
[34] Cc1cccc(NC(=O)C[C@H]2CC[C@H]3[C@@H](COc4ccc(NC(=O)NC(C)C)cc4C(=O)N3C)O2)c1
[35] CCCNC(=O)C[C@H]1CC[C@H]2[C@@H](COc3ccc(NC(=O)Nc4ccccc4F)cc3C(=O)N2C)O1
[36] Cc1ccc(/C=N/n2c(-c3cccnc3)n[nH]c2=S)s1

Compound | 31 | 32 | 33 | 34 | 35 | 36
HDAC3 inh | 1 | 2 | 17 | nt | nt | ?
Yeast UUG start | -16 | nt | -18 | 0 | 6 | nt
MC4R ag barr | -1 | -2 | -2 | nt | nt | 1
ALR inh | 31 | 98* | 96* | nt | nt | 76*
NALP1 inh | 1 | 3 | nt | nt | nt | 13
MC4R antagonist | 4 | 9 | 1 | nt | nt | 5

[37] S=c1[nH]nc(-c2cccnc2)n1/N=C/c1ccc(Br)s1
[38] CC(=O)Nc1ccc(/C=C/c2nc3ccccc3o2)cc1
[39] O=C(Nc1ccc(/C=C/c2nc3ccccc3o2)cc1)c1c(F)cccc1F
[40] COc1ccc(S(=O)(=O)N(C)C[C@H]2Oc3c(NC(=O)C4CC4)cccc3C(=O)N([C@@H](C)CO)C[C@H]2C)cc1
[41] Oc1cccc(O)c1O
[42] C[C@H]1CN([C@@H](C)CO)C(=O)c2cc(NC(=O)CCCN(C)C)ccc2O[C@H]1CN(C)CC1CCCCC1

Compound | 37 | 38 | 39 | 40 | 41 | 42
HDAC3 inh | 0 | -7 | -5 | nt | 1 | nt
Yeast UUG start | -5 | -22 | -7 | -1 | nt | -15
MC4R ag barr | 0 | -1 | 8.9* | nt | nt | nt
ALR inh | 3 | nt | 3 | nt | 83* | nt
NALP1 inh | 2 | 14 | nt | nt | nt | nt
MC4R antagonist | 11 | 2 | 10 | nt | nt | nt

[43] Cc1cc(NC(=O)c2ccc(C)c([N+](=O)[O-])c2)no1
[44] Cc1cc(NC(=O)c2ccc(Br)c([N+](=O)[O-])c2)no1
[45] CCCCN(C)CCNC(=O)c1cn(C)c(=O)c2c1c1ccccc1n2C
[46] O=C(Cc1ccccn1)N[C@H]1CC[C@H](CCNS(=O)(=O)c2cccc(F)c2)O[C@H]1CO
[47] Cc1onc(C(=O)N2CCN(c3ccccc3)CC2)c1[N+](=O)[O-]
[48] Cc1ccc(Cl)cc1N1CCN(C(=O)c2noc(C)c2[N+](=O)[O-])CC1

Compound | 43 | 44 | 45 | 46 | 47 | 48
HDAC3 inh | 0 | 7 | -3 | nt | nt | nt
Yeast UUG start | nt | 1 | -25 | -4 | -10 | -4
MC4R ag barr | 1 | 9.3* | 0 | nt | 0 | -1
ALR inh | -2 | 1 | -6 | nt | 95* | 9
NALP1 inh | -4 | 8 | 42* | nt | 20 | 21
MC4R antagonist | 19 | 19 | 17 | nt | -4 | 4

Bioassay records from PubChem.
